Like-named read-outs stand apart in the source and are kept apart here.
Assays:
Type in all cases: cell-based
BaF3_EGFRWT cells = BaF3_EGFRWT cells (Homo sapiens, UniProt P00533); test: Cell growth inhibition assay (CellTiterGlo), BaF3_EGFRWT
BaF3_HER2YVMA cells = BaF3_HER2YVMA cells (Homo sapiens, UniProt P04626, DUP772-775, cells depend on it); test: Cell growth inhibition assay (CellTiterGlo), BaF3_HER2YVMA; conditions: 3-day treatment, read-out: Cell growth inhibition activity, HER2 - YVMA
BaF3_HER2WT cells = BaF3_HER2WT cells (Homo sapiens, UniProt P04626); test: Cell growth inhibition assay (CellTiterGlo), BaF3_HER2WT; conditions: 3-day treatment, read-out: Cell growth inhibition activity, HER2 WT
[1] = 3-day treatment, read-out: Cell growth inhibition activity, EGFR WT

Row | GI50 (BaF3_HER2YVMA cells) [nM] | GI50 (BaF3_HER2WT cells) [nM] | GI50 (BaF3_EGFRWT cells; [1]) [nM] | SMILES | GI50 (BaF3_EGFRWT cells; read-out: Cell growth inhibition activity, EGFR WT, 3-day treatment) [nM]
1 |  |  |  | COC1CN(C/C=C/C(=O)N2CCC(c3ccn4ncnc(Nc5ccc(Oc6ccc7c(c6)ncn7C)c(C)c5)c34)CC2)C1 [Example 132, (E)-4-(3-methoxyazetidin-1-yl)-1-(4-(4-((3-methyl-4-((1-methyl-1H-benzo[d]imidazol-5-yl)oxy)phenyl)amino)pyrrolo[2,1-f][1,2,4]triazin-5-yl)piperidin-1-yl)but-2-en-1-one] | 1500 to 5000
2 | < 200 | < 200 | 1500 to 5000 | Cc1cc(Nc2ncnn3ccc(C4CCN(C(=O)/C=C/CN5CCOCC5)CC4)c23)ccc1Oc1ccc2c(c1)ncn2C [Example 128, (E)-1-(4-(4-((3-methyl-4-((1-methyl-1H-benzo[d]imidazol-5-yl)oxy)phenyl)amino)-pyrrolo[2,1-f][1,2,4]triazin-5-yl)piperidin-1-yl)-4-morpholinobut-2-en-1-one] | 
3 |  |  | 1500 to 5000 | COC1CCN(C/C=C/C(=O)N2CCC(c3ccn4ncnc(Nc5ccc(Oc6ccc7c(c6)ncn7C)c(C)c5)c34)CC2)CC1 [Example 115, (E)-4-(4-methoxypiperidin-1-yl)-1-(4-(4-((3-methyl-4-((1-methyl-1H-benzo[d]imidazol-5-yl)oxy)phenyl)amino)pyrrolo[2,1-f][1,2,4]triazin-5-yl)piperidin-1-yl)but-2-en-1-one] | 
4 |  |  | 1500 to 5000 | Cc1cc(Nc2ncnn3ccc(C4CCN(C(=O)/C=C/CN5CCN(C)CC5)CC4)c23)ccc1Oc1ccc2c(c1)ncn2C [Example 131, (E)-1-(4-(4-((3-methyl-4-((1-methyl-1H-benzo[d]imidazol-5-yl)oxy)phenyl)-amino)pyrrolo[2,1-f][1,2,4]triazin-5-yl)piperidin-1-yl)-4-(4-methylpiperazin-1-yl)but-2-en-1-one] | 
5 |  |  | 1500 to 5000 | Cc1cc(Nc2ncnn3ccc(C4CCN(C(=O)/C=C/CN5CCC(O)C5)CC4)c23)ccc1Oc1ccc2c(c1)ncn2C (stereo not shown) [Example 130, (E)-4-(3-hydroxypyrrolidin-1-yl)-1-(4-(4-((3-methyl-4-((1-methyl-1H-benzo[d]imidazol-5-yl)oxy)phenyl)amino)pyrrolo[2,1-f][1,2,4]-triazin-5-yl)piperidin-1-yl)but-2-en-1-one] | 
